## AlphaSeq binding of Ab-14 heavy chain variants to a spike HR2 peptide

From the AlphaSeq antibody data of Li et al. 2023 (doi:10.1038/s41467-023-39022-2), copy in the FLAb collection.

Antigen: PDVDLGDISGINAS, a 14-residue peptide of the SARS-CoV-2 spike HR2 region.

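The parent was found by panning a naive human phage display library on the peptide. This is the validation round: designs drawn from the data on random variants, tested in the same kind of assay. Group labels follow the data file (En: ensemble of fine-tuned language models; HC: hill climbing; Gen: genetic algorithm; Gibbs: Gibbs sampling; a sequence that several methods proposed may carry one label only). In AlphaSeq, yeast of one mating type display the scFv and yeast of the other type display the target. Binding brings cells together so that they mate, and sequencing counts the barcode pairs among the diploids. The ratio of observed to expected reads was calibrated, replicate by replicate, on BCL2-family standards whose Kd was known from biolayer interferometry. Each pool was mated in six replicate cultures.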

Ab-14 is the parent antibody, in scFv form: VH, then the linker GGGGSGGGGSGGGGS, then VL. The light chain is unchanged in all variants.
VH: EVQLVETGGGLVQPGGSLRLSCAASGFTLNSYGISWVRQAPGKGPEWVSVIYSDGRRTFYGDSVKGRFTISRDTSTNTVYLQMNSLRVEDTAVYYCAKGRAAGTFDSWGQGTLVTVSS
VL: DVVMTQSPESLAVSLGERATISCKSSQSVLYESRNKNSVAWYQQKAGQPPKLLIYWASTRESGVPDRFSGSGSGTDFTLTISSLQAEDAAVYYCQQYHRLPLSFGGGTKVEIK

Each variant is given by its three heavy chain CDRs, as the data file delimits them; those of the parent are GFTLNSYGIS, VIYSDGRRTFYGDSVK, GRAAGTFDS. This list holds designs with more than six substitutions. The Kd shown is the geometric mean over detected replicates; a lower Kd is a better binder. "nd" means that the variant was in the library but no mating with the target was seen in any replicate; the authors take this as a sign of poor binding, and no number exists. Values of this round are not directly comparable with the first-round values of the same sequences. The authors averaged sequences with at least three values out of six and counted those with two or fewer as poor binders. Empty control strains, which show no peptide, gave a signal in 1% of pairings with all heavy chain designs; the median was 120 nM and 95% of these signals were weaker than 7.0 nM. No background was subtracted. The control count says in how many pairings with the empty strains this scFv gave a signal. The parent sequence was in this pool as ten entries: three were never detected, three once, and four in most replicates, with averages from 2.2 nM to 240 nM.

- GFDLNEYGIS / VIYADGRRTSYVDSVK / GEAAGTFDV [En_HC] -> 6.3 nM (6 of 6 replicates; controls 1 of 18)
- GFDLDEYGIS / VIYADGSRTAYADSVK / GEVAGTFDI [En_Gen] -> 7.6 nM (4 of 6 replicates; controls 0 of 18)
- GFDLNEYGIS / VIYADGMRTAYVDNVK / GNVAGTFDI [En_Gen] -> 22 nM (3 of 6 replicates; controls 0 of 18)
- GFDLNEYGIS / VIYADGKRTAYVDSVK / GSNAGTFDV [En_Gen] -> 260 pM (6 of 6 replicates; controls 0 of 18)
- GFDLKEQGIS / VIYADGMRTFYTDKVK / GQNSNGFDM [En_Gibbs] -> nd (0 of 6 replicates; controls 0 of 18)
- GFDLDQYGIS / VIYADGKRVAYTDDVK / GVQGGMALV [En_Gibbs] -> nd (0 of 6 replicates; controls 1 of 18)
- GFDLNEYGIS / VIYADGRRTAYADDVK / GNVAGTFDQ [En_Gen] -> 220 pM (6 of 6 replicates; controls 0 of 18)
- GMDLEEYGIS / VIYADGMRTAAVDSVK / GDQSGTLVY [En_Gibbs] -> nd (0 of 6 replicates; controls 1 of 18)
- GFHLDEFGIS / VIYADGSRSSYADDVK / GEGVNGFVV [En_Gibbs] -> nd (0 of 6 replicates; controls 1 of 18)
- GFDLNEYGIS / VIYADGVRTFYVDSVK / GETAGTFDM [En_HC] -> 980 pM (6 of 6 replicates; controls 0 of 18)
- GFDLDEYGIS / VIYADGRRTFYKDSVK / GTNAGTFDM [En_HC] -> 100 pM (6 of 6 replicates; controls 0 of 18)
- GFDLNEYGIS / VIYADGMRTAYADSVK / GENAGTFDA [En_Gen] -> 760 pM (6 of 6 replicates; controls 0 of 18)
- GFDLNEYGIS / VIYADGSRTAYSDSVK / GNQAGTFDS [En_HC] -> 580 pM (6 of 6 replicates; controls 0 of 18)
- GFDLNEYGIS / VIYADGMRTAYADNVK / GQTAGTFDI [En_Gen] -> 300 pM (6 of 6 replicates; controls 0 of 18)
- GFQLNEYGIS / VIYADGLRTGYAQNVK / GYHSFGLNQ [En_Gibbs] -> nd (0 of 6 replicates; controls 1 of 18)
- GFDLDEYGIS / VIYADGKRTAYADSVK / GENAGTFDM [En_Gen] -> 5.8 nM (6 of 6 replicates; controls 1 of 18)
- GFDLEKYGIS / VIYADGRRSVYADNVK / GMLGATNGF [En_Gibbs] -> 210 nM (1 of 6 replicates; controls 1 of 18)
- GFDLNEYGIS / VIYADGMRTAYIDSVK / GNAAGTFDS [En_HC] -> 270 pM (6 of 6 replicates; controls 0 of 18)
- GFDLNEYGIS / VIYADGRRTFYADSVK / GAVAGTFDK [En_HC] -> 140 pM (6 of 6 replicates; controls 0 of 18)
- GFDLNEYGIS / VIYADGMRTAYADDVK / GNQAGTFDI [En_Gen] -> 380 pM (6 of 6 replicates; controls 1 of 18)
- GKNLDEYGVS / VIYADGKRTAYTNNFK / GGNAGFFMS [En_Gibbs] -> nd (0 of 6 replicates; controls 0 of 18)
- GFNLDEYGIS / VIYADGMRTAYADSVK / GNVAGTFDI [En_Gen] -> 450 pM (6 of 6 replicates; controls 1 of 18)
- GFDLNEYGIS / VIYADGKRTAYADKVK / GNNAGTFDV [En_Gen] -> 1.4 nM (5 of 6 replicates; controls 0 of 18)
- GFDLEDYGIS / VIYADGKRTAYADSVK / GNTAGTFDV [En_Gen] -> 260 pM (6 of 6 replicates; controls 1 of 18)
- GHSLDEYGIS / VIYADGMRTAYTDDVK / GKWGEDVVT [En_Gibbs] -> nd (0 of 6 replicates; controls 0 of 18)
- GFDLNEYGIS / VIYADGKRTAYADNVK / GEVAGTFDL [En_Gen] -> 390 pM (6 of 6 replicates; controls 0 of 18)
- GFDLNEYGIS / VIYADGMRTAYANSVK / GEVAGTFDL [En_Gen] -> 330 pM (6 of 6 replicates; controls 0 of 18)
- GFDINEYGIS / VIYADGNRTMYQDQVK / GGNAGSFVI [En_Gibbs] -> nd (0 of 6 replicates; controls 0 of 18)
- GFDLDEYGIS / VIYADGKRTAYAESVK / GNVAGTFDV [En_Gen] -> 300 pM (6 of 6 replicates; controls 0 of 18)
- GFSLDEYGIS / VIYADGRRTFYTDDVK / GNVAGTFDV [En_HC] -> 390 pM (6 of 6 replicates; controls 0 of 18)
- GFILGEYGIS / VIYADGERTMYSNRVK / GNEAGTFDF [En_Gibbs] -> 8.9 nM (6 of 6 replicates; controls 0 of 18)
- GFDLNEYGIS / VIYADGVRTYYADSVK / GENAGTFDM [En_Gen] -> 1.1 nM (6 of 6 replicates; controls 1 of 18)
- GFDLNEYGIS / VIYADGMRTAYSDDVK / GNTAGTFDI [En_Gen] -> 180 pM (6 of 6 replicates; controls 1 of 18)
- GFDLNEYGIS / VIYADGMRTAYSDSVK / GNHAGTFDV [En_Gen] -> 1.1 nM (6 of 6 replicates; controls 0 of 18)
- GNSLQEYGIS / VIYADGMRTAYTDSVK / GLFGYTFLD [En_Gibbs] -> nd (0 of 6 replicates; controls 0 of 18)
- GFSIDEYGIS / VIYADGARASYAPKVK / GQEAGDLIE [En_Gibbs] -> 87 nM (3 of 6 replicates; controls 0 of 18)
- GFDLNEYGIS / VIYADGVRTAYSDKVK / GENAGTFDV [En_Gen] -> 1.0 nM (6 of 6 replicates; controls 0 of 18)
- GFQLNEYGIS / VIYADGIRREYASKVK / GGENASFDL [En_Gibbs] -> nd (0 of 6 replicates; controls 0 of 18)
- GFDLNEYGIS / VIYADGMRTAYADNVK / GNTAGTFDL [En_Gen] -> 1.4 nM (6 of 6 replicates; controls 0 of 18)
- GFDLNEYGVS / VIYADGFRTSYTDSVK / GNIVDLSMA [En_Gibbs] -> nd (0 of 6 replicates; controls 1 of 18)
- GFNLDEYGIS / VIYADGYRRAYAQSVK / GYNMSLGVT [En_Gibbs] -> nd (0 of 6 replicates; controls 0 of 18)

Top 7 of the variants detected in all replicates, tightest first:

| CDR-H1 | CDR-H2 | CDR-H3 | group | Kd (apparent) | seen in | empty controls |
|---|---|---|---|---|---|---|
| GFDLDEYGIS | VIYADGRRTFYKDSVK | GTNAGTFDM | En_HC | 100 pM | 6/6 | 0/18 |
| GFDLNEYGIS | VIYADGRRTFYADSVK | GAVAGTFDK | En_HC | 140 pM | 6/6 | 0/18 |
| GFDLNEYGIS | VIYADGMRTAYSDDVK | GNTAGTFDI | En_Gen | 180 pM | 6/6 | 1/18 |
| GFDLNEYGIS | VIYADGRRTAYADDVK | GNVAGTFDQ | En_Gen | 220 pM | 6/6 | 0/18 |
| GFDLEDYGIS | VIYADGKRTAYADSVK | GNTAGTFDV | En_Gen | 260 pM | 6/6 | 1/18 |
| GFDLNEYGIS | VIYADGKRTAYVDSVK | GSNAGTFDV | En_Gen | 260 pM | 6/6 | 0/18 |
| GFDLNEYGIS | VIYADGMRTAYIDSVK | GNAAGTFDS | En_HC | 270 pM | 6/6 | 0/18 |